Format in all cases: cell-based
For one test, the system named is guinea-pig platelets. The experiment in a line: Guinea-pig platelet aggregation assay. Conditions: for Platelet Aggreg (threshold concentration producing visible platelet aggregation): guinea-pig platelets, threshold response. As to the method:
This assay was performed on platelets obtained from the arterial blood of anesthetized male Hartley guinea pigs according to previously published methods (Ember et al., 1992, supra). Briefly, platelet-rich plasma was prepared and diluted to 3×10^8 platelets/ml in 0.39% sodium citrate solution. Peptide samples were diluted in a stepwise fashion in 1.5-fold dilutions and placed in 96-well microplates. A […] peptide sample, […] of platelet-rich plasma, and one 3 mm glass bead were placed in each well. The plates were shaken horizontally at 100 rpm for 5 min at 37° C. Platelet aggregation was evaluated visually in an inverted microscope at 40× magnification. The greatest dilution of peptide producing visible aggregation was scored as the threshold concentration for activity. Natural C5a and C3a were included as internal standards. At least three independent duplicate determinations were conducted for every peptide.

Test [1] concerns the target T1, human neutrophils (PMN) (Homo sapiens, UniProt P21730).
T1 sequence (P21730 1-350): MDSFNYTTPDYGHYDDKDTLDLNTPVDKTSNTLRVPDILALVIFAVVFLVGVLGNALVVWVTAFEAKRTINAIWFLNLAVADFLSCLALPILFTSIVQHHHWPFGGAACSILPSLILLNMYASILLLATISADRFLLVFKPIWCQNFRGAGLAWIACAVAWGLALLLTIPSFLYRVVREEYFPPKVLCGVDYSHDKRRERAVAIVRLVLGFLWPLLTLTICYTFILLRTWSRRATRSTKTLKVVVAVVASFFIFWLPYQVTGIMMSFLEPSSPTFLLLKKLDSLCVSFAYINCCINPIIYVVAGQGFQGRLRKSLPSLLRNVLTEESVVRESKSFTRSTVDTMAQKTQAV
How it is done: Neutrophil polarization assays were conducted as described by Ember et al., 1992, supra. Human neutrophils (PMN) were prepared according to the procedure described by Dahinden et al. (1979), J. Immunol., 130: 857-862. The assay for measuring the effect of C5a analogs on PMN polarization was described by Haston & Shields (1985), J. Immunol. Methods, 81: 229-237. Briefly, PMN (1×10^6 cells/ml) were suspended in 10 mM 3- (N-morpholino) propane sulfonic acid (Sigma Chemical Co.) containing EBSS. […] After 10 minutes of incubation at room temperature, the cells were washed twice and stored until microscopic examination. Cells deviating from the typical spherical shape were visually scored as polarized. Results are expressed as percent of polarized cells per total cells counted (300 cells counted/sample).

In test [2] the target is T1, human neutrophils (PMN). As to the method:
The release of glucuronidase from human neutrophils was determined as described by Schroder et al. (1987), J. Immunol., 139: 3474-3483. Briefly, human neutrophils were pretreated with cytochalasin B (5 μg/ml, 10 min, 37° C.). The cells (10^6) were incubated in the presence of stimulants for 60 minutes at 37° C. in a final volume of 200 μl and then centrifuged. The supernatant was collected and 50 μl were incubated with 50 μl of 0.01 M P-nitrophenyl-β-D-glucuronide (in 0.1 M sodium acetate at pH 4 for 18 h) as triplicate determinations in 96-well microtiter plates (Corning). The reaction was stopped by addition of 100 μl of 0.4 M gly buffer at pH 10. The reaction developed color that was read at 405 nm in a Titertec Multiscan (MCC/340) ELISA reader. The β-glucuronidase released was expressed as the percentage of total enzyme in the cell that could be released by addition of 0.2% Triton X-100 (Pierce).
This is another data set of the same source.

The next test addresses T2, human fetal artery (Homo sapiens, UniProt P21730).
T2 sequence (P21730 1-350): T1 sequence (P21730 1-350)
As to the kind of experiment: Smooth muscle contraction of human fetal artery (spasmogenic assay). As to the method: Tissue strips were suspended in 2 ml organ baths, containing physiological salt solution (Krebs-Ringers solution: 118 mM NaCl, 4.7 mM KCl, 2.5 mM CaCl2, 25 mM NaHCO3, 1.2 mM KH2PO4, 1.2 mM MgSO4, 10 mM Glucose) maintained at 37° C., pH 7.4 and continuously aerated with a […] mixture. Each tissue preparation was equilibrated for 1 hr prior to testing with peptides. All drugs were kept on ice during the procedure and isometric tensions were measured using strain-gauge transducers (Grass FT-03) with a computerized chart recording system (MacLab/8). After the contraction to each peptide reached a plateau, histamine (10 μM) was added to obtain the maximum tissue response. Because tachyphylaxis occurs rapidly to single doses of C5a or peptides, cumulative dose-response curves could not be obtained. […] After exposing each strip to a single concentration of the peptide followed by supramaximal histamine, the response was expressed as a percentage of the maximal contraction to histamine. Full dose-response curves for C5a (human recombinant C5a; Sigma) or individual peptides were performed in each experiment for each tissue and the EC50 values (i.e., concentration of peptide producing 50t of the maximal response to each peptide) obtained by probit analysis. pD2 transforms [−log EC50 (M)] were calculated for each dose-response curve, and means ±SE obtained for each peptide. […]

Read-outs that look alike come from different tables or passages of the source.

`CSCC[C@H](NC(=O)[C@H](CC(=O)O)NC(=O)[C@H](CCCCN)NC(=O)[C@H](Cc1ccccc1)NC(=O)[C@H](CO)NC(=O)[C@@H](N)Cc1ccc(O)cc1)C(=O)N1CCC[C@H]1C(=O)N[C@@H](C)C(=O)N[C@H](C)C(=O)N[C@@H](CCCNC(=N)N)C(=O)O` [peptide 12]: the “Platelet Aggreg (threshold concentration producing visible platelet aggregation)” value with guinea-pig platelets was determined as 90 µM. The EC50 (as a rule, the concentration that produces a half-maximal response) at human neutrophils (PMN) [1] was found to be 5.6 µM.
In the case of `CSCC[C@H](NC(=O)[C@H](CC(=O)O)NC(=O)[C@H](CCCCN)NC(=O)[C@H](Cc1ccccc1)NC(=O)[C@H](CO)NC(=O)[C@@H](N)Cc1ccc(O)cc1)C(=O)N1CCC[C@H]1C(=O)N[C@@H](CC(C)C)C(=O)N[C@H](Cc1ccccc1)C(=O)N[C@@H](CCCNC(=N)N)C(=O)O` [peptide 13], the “Platelet Aggreg (threshold concentration producing visible platelet aggregation)” value with guinea-pig platelets turned out to be 2.3 µM. The EC50 on human neutrophils (PMN) [1] is 4 µM; at human neutrophils (PMN) [2], 114 µM.
Taken in the same sequence, the figures for `CSCC[C@H](NC(=O)[C@H](CC(=O)O)NC(=O)[C@H](CCCCN)NC(=O)[C@H](Cc1ccccc1)NC(=O)[C@H](CO)NC(=O)[C@@H](N)Cc1ccc(O)cc1)C(=O)N1CCC[C@H]1C(=O)N[C@@H](CC(C)C)C(=O)N1CCC[C@@H]1C(=O)N[C@@H](CCCNC(=N)N)C(=O)O` [peptide 14] were 2.7 µM, 2.5 µM and 46.5 µM.
In the case of `CC(C)C[C@H](NC(=O)[C@@H]1CCCN1C(=O)[C@H](C)NC(=O)[C@H](CC(=O)O)NC(=O)[C@H](CCCCN)NC(=O)[C@H](Cc1ccccc1)NC(=O)[C@H](CO)NC(=O)[C@@H](N)Cc1ccc(O)cc1)C(=O)N[C@H](C)C(=O)N[C@@H](CCCNC(=N)N)C(=O)O` [peptide 19], at human fetal artery (in words), the “spasmogenic activity compared with peptide 10” value is reported as “equipotent”. Also, the “potency relative to natural C5a for elicitation of a spasmogenic response (Class 1)” value on human fetal artery (smooth muscle contraction assay, percent of natural/full C5a potency) was 4-5%. In addition, the “Platelet Aggreg (threshold concentration producing visible platelet aggregation)” value with guinea-pig platelets amounted to 0.54 µM. Further, the “platelet aggregation potency compared with peptide 10” value in the test with guinea-pig platelets (in words) is on record as “about twice as potent”. The results for the EC50 at human neutrophils (PMN) [1] and on human neutrophils (PMN) [2] were 2.3 µM and 114 µM, respectively.
